Measurements published in patent US20120058099A1, “USE OF HYPOXANTHINE FOR PROMOTION OF NEURONAL OUTGROWTH” (CHILDREN'S MEDICAL CENTER CORPORATION, priority 2009, published 2012).

Tested on: embryonic cortical neurons
Experiment: Embryonic cortical neuron axonal outgrowth with or without BCX-34 (FIG. 2)
Format: cell-based, rat
Protocol: These experiments were done on embryonic cortical neurons. The forebrains of […] rat pups were dissected and plated in media containing serum. After 3 hours the medium was exchanged for Medium E (Irwin et al. 2006) (Proc Nati Acad Sci U S A. 2006 Nov 28;103(48):18320-5). The cells were treated the following day with inosine or hypoxanthine, in the presence and absence of the indicated amount of the inhibitor 6-thioguanine (6-TG), and allowed to grow for 3 days. The 6-TG was added 1 hour before the hypoxanthine or inosine. Following the three days of growth, the cells were fixed and stained with Taul antibody and a fluorescent secondary antibody. Axons were then counted. […] FIG. 1 presents the data obtained.
In a similar experiment, embryonic cortical neurons were given brain derived neurotrophic factor (BDNF) (2 ng/ml), inosine, or hypoxanthine (100 μM). […] The cells were then scored for neuron axonal outgrowth. The data collected is represented in FIG. 2.

In the case of `Nc1nc2c(Cc3cccnc3)c[nH]c2c(=O)[nH]1` [BCX-34], the “effect of BCX-34 on growth of cells exposed to hypoxanthine” value (BCX-34 50 μM added 1 hour before hypoxanthine 100 μM) is reported as “did not negatively impact the growth of cells exposed to hypoxanthine” and the “effect of BCX-34 on axon outgrowth of cells exposed to inosine” value (BCX-34 50 μM added 1 hour before inosine) is reported as “blocked axon outgrowth of cells exposed to inosine”.
